This is an account of results in ChEMBL document CHEMBL5104187, “Discovery of 2-(1-(3-Chloro-4-cyanophenyl)-1H-pyrazol-3-yl)acetamides as Potent, Selective, and Orally Available Antagonists Targeting the Androgen Receptor” (J Med Chem, 2022).

By UniProt entry, the sequences of proteins in these tests, tags left out.
Androgen receptor (Homo sapiens), P10275, UniProt P10275, whole entry F877L: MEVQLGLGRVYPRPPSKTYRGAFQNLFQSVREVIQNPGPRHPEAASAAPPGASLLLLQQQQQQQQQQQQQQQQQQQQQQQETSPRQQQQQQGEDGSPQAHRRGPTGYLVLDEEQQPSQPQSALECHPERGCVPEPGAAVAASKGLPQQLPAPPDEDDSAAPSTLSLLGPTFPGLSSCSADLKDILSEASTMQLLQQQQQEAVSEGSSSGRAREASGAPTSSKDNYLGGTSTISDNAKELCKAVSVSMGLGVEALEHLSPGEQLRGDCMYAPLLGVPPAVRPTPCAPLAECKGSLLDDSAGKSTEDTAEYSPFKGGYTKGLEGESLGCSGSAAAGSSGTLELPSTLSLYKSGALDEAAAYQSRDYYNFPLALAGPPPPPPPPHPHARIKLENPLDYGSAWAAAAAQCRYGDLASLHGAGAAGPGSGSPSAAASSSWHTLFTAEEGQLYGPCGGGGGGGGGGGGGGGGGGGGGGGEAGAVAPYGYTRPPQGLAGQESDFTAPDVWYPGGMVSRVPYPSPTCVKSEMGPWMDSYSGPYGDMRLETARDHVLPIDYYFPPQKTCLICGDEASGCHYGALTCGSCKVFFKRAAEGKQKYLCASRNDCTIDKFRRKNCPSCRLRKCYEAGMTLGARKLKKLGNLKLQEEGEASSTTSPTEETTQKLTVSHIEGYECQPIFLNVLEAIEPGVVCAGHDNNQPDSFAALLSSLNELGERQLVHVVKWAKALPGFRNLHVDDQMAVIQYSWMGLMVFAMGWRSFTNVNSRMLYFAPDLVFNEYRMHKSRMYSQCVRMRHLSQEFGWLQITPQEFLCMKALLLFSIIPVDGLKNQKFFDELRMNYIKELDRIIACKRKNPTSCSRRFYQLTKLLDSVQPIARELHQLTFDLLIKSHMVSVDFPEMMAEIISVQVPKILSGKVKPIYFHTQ

The subject of the test is Androgen receptor (Homo sapiens), P10275 [F877L]. The test can be described thus: Potency index, ratio of Darolutamide IC50 to test compound IC50 for inhibition androgen receptor F877L mutant (unknown origin) transcriptional activity.

With `N#Cc1ccc(-n2ccc(CC(=O)Nc3ccc(F)nc3)n2)cc1Cl`, the Ratio IC50 turned out to be 20.
